AlphaSeq binding of Ab-14 heavy chain variants to a spike HR2 peptide

Data: MIT Lincoln Laboratory AlphaSeq set, Li et al. 2023, doi:10.1038/s41467-023-39022-2, as distributed in FLAb.

The target is the same throughout: PDVDLGDISGINAS, from the HR2 region of SARS-CoV-2 spike.

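The parent was found by panning a naive human phage display library on the peptide. These sequences belong to a second round, designed from the earlier measurements on random variants of the parent. Their group label is 14H_En_Gibbs (En: ensemble of fine-tuned language models; Gibbs: Gibbs sampling). The scFvs were displayed on barcoded MATa yeast, the peptide on MATalpha yeast. The frequency of each diploid, read from paired DNA barcodes, reflects how well the two displayed proteins bind. Read counts were normalised to the haploid input and turned into Kd by a linear fit to BCL2-family pairs of known affinity, for each replicate. Each pool was mated in six replicate cultures.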

Ab-14 is the parent antibody, in scFv form: VH, then three GGGGS repeats, then VL. The light chain is unchanged in all variants.
VH: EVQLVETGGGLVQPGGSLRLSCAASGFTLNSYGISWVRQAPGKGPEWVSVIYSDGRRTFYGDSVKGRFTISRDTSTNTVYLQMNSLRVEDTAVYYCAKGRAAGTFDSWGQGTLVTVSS
VL: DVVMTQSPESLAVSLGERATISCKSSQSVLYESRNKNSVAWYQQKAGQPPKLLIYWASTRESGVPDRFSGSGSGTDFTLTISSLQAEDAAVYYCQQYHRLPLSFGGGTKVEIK

Variants are written as CDR1, CDR2 and CDR3 of the heavy chain (limits as in the source). Parent: GFTLNSYGIS, VIYSDGRRTFYGDSVK, GRAAGTFDS.
The read-out is the apparent dissociation constant on a log10 scale (nM): the lower, the stronger.
"n.d." marks a missing value. The strain was present, yet no cells mated with the target were sequenced in that replicate, which points to weak or no binding.
A sequence measured in both rounds can read differently, since the two assays cover different ranges.
The authors' rule: three or more of the six replicates give a measured affinity, fewer mean a poor binder.
Of ten entries with the parent sequence, four were seen in most replicates (averages 0.34 to 2.37), three in one and three in none, so single entries are noisy.
As a blank, each scFv also met three strains without target: over all heavy chain designs, 1% of these pairings were detected, typically at 2.08 and seldom below 0.84. Also given: how often the same scFv was detected with the empty control strains, with their mean in brackets.

{"CDR-H1": "GMSLDSYGIS", "CDR-H2": "VIYADGMRTSYDNSVK", "CDR-H3": "GAWAGTFDE", "log10 Kd (nM) by replicate": "n.d. / 0.95 / 1.41 / 1.29 / 0.58 / 1.25", "control signals": "0/18"}
{"CDR-H1": "GFDIEEYGIS", "CDR-H2": "VIYADGVRTMYADDVK", "CDR-H3": "GNSKNYSLS", "log10 Kd (nM) by replicate": "n.d. / n.d. / n.d. / n.d. / n.d. / n.d.", "control signals": "0/18"}
{"CDR-H1": "GFDLDEYGIS", "CDR-H2": "VIYADGKRRAYESKVK", "CDR-H3": "GQSGSSVVN", "log10 Kd (nM) by replicate": "n.d. / n.d. / n.d. / n.d. / n.d. / n.d.", "control signals": "0/18"}
{"CDR-H1": "GFDLKEYGIS", "CDR-H2": "VIYADGERAGYADNVK", "CDR-H3": "GEAGGKFLV", "log10 Kd (nM) by replicate": "1.32 / n.d. / 2.57 / n.d. / n.d. / 2.24", "control signals": "0/18"}
{"CDR-H1": "GFDLEEYGIS", "CDR-H2": "VIYADGMRVSYTNTVK", "CDR-H3": "GQNSMISTA", "log10 Kd (nM) by replicate": "n.d. / n.d. / n.d. / n.d. / n.d. / n.d.", "control signals": "0/18"}
{"CDR-H1": "GFDLNEMGIS", "CDR-H2": "VIYADGDRKKYQDAVK", "CDR-H3": "GDVSGDFDE", "log10 Kd (nM) by replicate": "n.d. / n.d. / n.d. / n.d. / n.d. / n.d.", "control signals": "0/18"}
{"CDR-H1": "GDNLEEYGIS", "CDR-H2": "VIYADGRRSSYASSVK", "CDR-H3": "GAIRGTFDS", "log10 Kd (nM) by replicate": "n.d. / 1.77 / n.d. / n.d. / n.d. / n.d.", "control signals": "0/18"}
{"CDR-H1": "GFKLEEYGIS", "CDR-H2": "VIYADGKRVAYQDKVK", "CDR-H3": "GKHAGMFDV", "log10 Kd (nM) by replicate": "0.69 / 1.45 / 1.81 / 1.66 / 1.01 / 1.63", "control signals": "0/18"}
{"CDR-H1": "GFKLDEQGIS", "CDR-H2": "VIYADGRRVGYTDSVK", "CDR-H3": "GTNGLNFTL", "log10 Kd (nM) by replicate": "n.d. / n.d. / n.d. / n.d. / n.d. / n.d.", "control signals": "1/18 (0.58)"}
{"CDR-H1": "GFQLDEYGIS", "CDR-H2": "VIYADGSRTAYADSVK", "CDR-H3": "GAYKFHLVV", "log10 Kd (nM) by replicate": "n.d. / n.d. / n.d. / n.d. / n.d. / n.d.", "control signals": "0/18"}
{"CDR-H1": "GFDLNEFGVS", "CDR-H2": "VIYADGSRASYADKVK", "CDR-H3": "GLNFGQLIV", "log10 Kd (nM) by replicate": "n.d. / n.d. / n.d. / n.d. / n.d. / n.d.", "control signals": "1/18 (0.95)"}
{"CDR-H1": "GQDLAEYGIS", "CDR-H2": "VIYADGKRTYYAQNVK", "CDR-H3": "GTNVGQGDT", "log10 Kd (nM) by replicate": "n.d. / n.d. / n.d. / n.d. / n.d. / n.d.", "control signals": "0/18"}
{"CDR-H1": "GFSLDEYGIS", "CDR-H2": "VIYADGRRTMYCDNFK", "CDR-H3": "GELGCTFKI", "log10 Kd (nM) by replicate": "n.d. / n.d. / n.d. / n.d. / n.d. / n.d.", "control signals": "0/18"}
{"CDR-H1": "GFGLDEYGIS", "CDR-H2": "VIYADGSRTEYVQSVK", "CDR-H3": "GMTSVIKFV", "log10 Kd (nM) by replicate": "n.d. / n.d. / n.d. / n.d. / n.d. / n.d.", "control signals": "0/18"}
{"CDR-H1": "GFEIQDYGIS", "CDR-H2": "VIYADGLRTAYSDGFK", "CDR-H3": "GIIAGTFNV", "log10 Kd (nM) by replicate": "0.01 / -0.06 / 0.59 / 1.07 / -0.45 / 0.79", "control signals": "0/18"}
{"CDR-H1": "GDKLEAYGIS", "CDR-H2": "VIYADGQRAAYVDKVK", "CDR-H3": "GQTGGMFDQ", "log10 Kd (nM) by replicate": "n.d. / n.d. / n.d. / n.d. / n.d. / n.d.", "control signals": "0/18"}
{"CDR-H1": "GQDLQEYGVS", "CDR-H2": "VIYADGMRTAYADSFK", "CDR-H3": "GKSLGNIVQ", "log10 Kd (nM) by replicate": "n.d. / n.d. / n.d. / n.d. / n.d. / n.d.", "control signals": "2/18 (2.79)"}
{"CDR-H1": "GRDLDEYGIS", "CDR-H2": "VIYADGTRKMYAVSFK", "CDR-H3": "GEHGGTFLM", "log10 Kd (nM) by replicate": "n.d. / n.d. / n.d. / n.d. / n.d. / n.d.", "control signals": "0/18"}
{"CDR-H1": "GYDLDQYGIS", "CDR-H2": "VIYADGMRSYYADSVK", "CDR-H3": "GHEGDILYV", "log10 Kd (nM) by replicate": "n.d. / n.d. / n.d. / n.d. / n.d. / n.d.", "control signals": "0/18"}
{"CDR-H1": "GADLNEYGIS", "CDR-H2": "VIYADGRQVYYENSFK", "CDR-H3": "GHVAGTFDS", "log10 Kd (nM) by replicate": "2.81 / n.d. / 1.35 / 1.26 / 1.41 / n.d.", "control signals": "1/18 (3.26)"}
{"CDR-H1": "GFDLGEYGVS", "CDR-H2": "VIYADGLRAQYASKVK", "CDR-H3": "GNFSGNIDV", "log10 Kd (nM) by replicate": "n.d. / n.d. / n.d. / n.d. / n.d. / n.d.", "control signals": "1/18 (2.05)"}
{"CDR-H1": "GFKLDEYGIS", "CDR-H2": "VIYADGVRAHYKDSVK", "CDR-H3": "GVHQGYVVM", "log10 Kd (nM) by replicate": "n.d. / n.d. / n.d. / n.d. / n.d. / n.d.", "control signals": "0/18"}
{"CDR-H1": "GFKLDEYGIS", "CDR-H2": "VIYADGVRAHYKESVK", "CDR-H3": "GVHGAYVVF", "log10 Kd (nM) by replicate": "n.d. / n.d. / n.d. / n.d. / n.d. / n.d.", "control signals": "0/18"}
{"CDR-H1": "GFQLNEYGIS", "CDR-H2": "VIYADGMRSEYQNSVK", "CDR-H3": "GSNSSSFKV", "log10 Kd (nM) by replicate": "n.d. / n.d. / 2.17 / n.d. / n.d. / n.d.", "control signals": "0/18"}
{"CDR-H1": "GKGLDEYGVS", "CDR-H2": "VIYADGKRHSYAEDVK", "CDR-H3": "GGIAGQFLV", "log10 Kd (nM) by replicate": "n.d. / n.d. / n.d. / n.d. / n.d. / n.d.", "control signals": "0/18"}
{"CDR-H1": "GYDLQDYGIS", "CDR-H2": "VIYADGRRTAFSHSVK", "CDR-H3": "GQIAGTFNF", "log10 Kd (nM) by replicate": "-0.08 / 0.59 / 0.68 / 0.28 / 0.14 / 0.19", "control signals": "0/18"}

The closing 4 entries, repeated:

CDR-H1	CDR-H2	CDR-H3	log10 Kd (nM) by replicate	control signals
GFKLDEYGIS	VIYADGVRAHYKESVK	GVHGAYVVF	n.d. / n.d. / n.d. / n.d. / n.d. / n.d.	0/18
GFQLNEYGIS	VIYADGMRSEYQNSVK	GSNSSSFKV	n.d. / n.d. / 2.17 / n.d. / n.d. / n.d.	0/18
GKGLDEYGVS	VIYADGKRHSYAEDVK	GGIAGQFLV	n.d. / n.d. / n.d. / n.d. / n.d. / n.d.	0/18
GYDLQDYGIS	VIYADGRRTAFSHSVK	GQIAGTFNF	-0.08 / 0.59 / 0.68 / 0.28 / 0.14 / 0.19	0/18